Measured values taken from patent US20060095982A1 (priority 2002, published 2006).

Chains of the proteins cited; added tags and fusions are not shown.
UniProt P08684, whole entry: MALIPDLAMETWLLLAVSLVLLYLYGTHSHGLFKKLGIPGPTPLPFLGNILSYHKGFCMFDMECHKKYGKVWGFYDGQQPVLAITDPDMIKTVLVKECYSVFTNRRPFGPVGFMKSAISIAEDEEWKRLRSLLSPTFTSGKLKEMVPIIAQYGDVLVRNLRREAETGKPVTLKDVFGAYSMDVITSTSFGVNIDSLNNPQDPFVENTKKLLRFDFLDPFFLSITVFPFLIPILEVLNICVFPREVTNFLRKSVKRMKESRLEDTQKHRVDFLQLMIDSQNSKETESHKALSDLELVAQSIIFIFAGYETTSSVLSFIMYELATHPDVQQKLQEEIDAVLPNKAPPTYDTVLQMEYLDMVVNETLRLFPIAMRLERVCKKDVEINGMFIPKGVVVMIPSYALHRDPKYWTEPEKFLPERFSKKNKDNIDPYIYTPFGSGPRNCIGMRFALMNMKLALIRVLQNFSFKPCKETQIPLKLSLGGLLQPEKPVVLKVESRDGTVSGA

Target: mammalian P450 3A4 (Homo sapiens, UniProt P08684)
Test: Degradation of nitramine explosives by mammalian P450 3A4
Conditions: preliminary results

O=[N+]([O-])N1CN([N+](=O)[O-])CN([N+](=O)[O-])C1
degradation by mammalian P450 3A4: ability to degrade

Only a part of the results on these compounds is given; other tests are left out.
